Sampled rows, rich in hits. Any-hit rate of the full collection: about 0.46%.
HCMV UL50-53 inh – cytomegalovirus nuclear egress complex inhibition | HTRF UL50-UL53 interaction, normalized percent inhibition | inhibition, % (concentration not given with the values) | actives 0.15% (n = 190,000) | AID 1918969; in the data active = inhibition above about 27%, passing the limit was not always enough
GIV-Gai inh – blocks GIV peptide binding to rat Galpha-i3. P08753. Galpha-i3/FITC-GIV peptide fluorescence polarization, 90 min; hits give low values; scaled: aluminum fluoride 0%, vehicle 100%. percent of control (FP), % (concentration not given with the values). actives 0.42% (n = 210,000). AID 1224905;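 active = replicate mean at 85% of control or lower, very high polarization wells dropped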;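 also: wells of about 15 µL received 100 nL stock; the first replicate is given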
An asterisk follows results filed as active; . = no result given.

SMILES	HCMV UL50-53 inh	GIV-Gai inh
CCCCCC(=O)OC[C@H](CO)OC(=O)CCCCC	-33	.
CCOC(=O)/C(C#N)=C/c1ccc(N2CCCCC2)o1	-148	-74*
N#C/C(=C\c1ccc(N2CCCCC2)o1)C(N)=O	-217	197
O=C(c1ccco1)N1CCN(Cc2ccccc2Br)CC1	.	106
CC(C)(C)c1ccc(OCC(=O)N2CCN(c3ccc(O)cc3)CC2)cc1	-16	.
Cc1c(C(=O)Nc2cccc(F)c2)sc2nc(-c3cc4ccccc4oc3=O)[nH]c(=O)c12	-8	97
Cc1cc(C)cc(NC(=O)c2sc3nc(-c4cc5ccccc5oc4=O)[nH]c(=O)c3c2C)c1	-7	98
Cc1cccc(NC(=O)c2sc3nc(-c4cc5ccc(O)cc5oc4=O)[nH]c(=O)c3c2C)c1	-18	-66*
Cc1ccc(C)c(N2CCN(C(=O)c3cccn4c(=O)c5ccccc5nc34)CC2)c1	.	104
CCOC(=O)N1CCN(C(=O)c2cccn3c(=O)c4cc5ccccc5cc4nc23)CC1	.	24*
COC(=O)CNc1cc(C)c(C(O)(C(F)(F)F)C(F)(F)F)cc1OC	-1	.
Cc1ccc(NC(=O)N2CCN(S(=O)(=O)c3ccc4c(ccn4C)c3)CC2)cc1Cl	-7	100
Cc1ccc(/C=C2/CC(C)C/C(=C\c3ccc(C)o3)C2=O)o1 (stereo not given)	-2	206
Cc1ccc(/C=C2\CC/C(=C\c3ccc(C)o3)C2=O)o1	.	-75*
NC(=O)C1(N2CCCCC2)CCN(C2CC(=O)N(CCc3ccccc3)C2=O)CC1 (stereo not given)	8	.
CCN(CC)c1ccc2nc3c(nc2c1)C(=O)c1ccccc1C3=O	64*	107
CCC(=O)Nc1ccc2nc3c(=O)n(C)c(=O)n(C)c3nc2c1	-152	102
O=C1c2ccccc2-c2nc3ccccc3nc21	-135	104
CCOc1cccc(N2C(=O)/C(=C\c3ccc(N(CC)CC)cc3OC)C(=O)NC2=S)c1	-14	222
CCN(CC)c1ccc(C=C2C(=O)c3ccccc3C2=O)c(OC)c1	.	-18*
CCN(CC)c1ccc2nc3c(=O)n(C)c(=O)n(C)c3nc2c1	-138	-26*
CC12CN3CC(C)(CN(C1)C3c1ccccc1[N+](=O)[O-])C2=O (stereo not given)	.	125
COc1ccccc1N1C(=O)N(c2ccc(Cl)cc2)C2CS(=O)(=O)CC21 (stereo not given)	10	100
Cc1cc2c(cc1Br)NC(=O)C21C(C#N)=C(N)Oc2n[nH]c(C)c21 (stereo not given)	-24	100
Cc1cc(C)c(-c2n[nH]c3c2C(c2ccccc2F)N(Cc2ccco2)C3=O)c(O)c1 (stereo not given)	20	102
CCC(=O)N1CCc2sc(C(=O)NC3CC3)cc2C1	.	97
Cc1nc2c(C(=O)N3CCC4(CC3)OCCO4)cnn2c(C)c1Cc1ccccc1Br	.	107
NS(=O)(=O)c1cc(C(=O)O)c(NCc2ccco2)cc1Cl	-6	104
CCCCNS(=O)(=O)c1cccc2nonc12	-86	106
N#C/C(=C\c1ccc(-c2ccc(Cl)c(C(=O)O)c2)o1)c1nc2ccccc2[nH]1	-76	-58*
Cc1ccc2nc(/C(C#N)=C/c3ccc(-c4cccc(Cl)c4)o3)[nH]c2c1	-51	243
N#C/C(=C\c1ccc(-c2ccc(C(=O)O)cc2)o1)c1nc2ccccc2[nH]1	-26	-6.1*
N#C/C(=C/c1ccc(-c2ccc(C(=O)O)cc2)o1)c1ccc(Cl)cc1	-92	113
O=c1c2ccccc2nc2c(-c3nc(-c4ccc5c(c4)OCO5)no3)cccn12	-18	58*
O=c1c2ccccc2nc2c(-c3nc(-c4ccccc4)no3)cccn12	-27	118
CCc1ccccc1N1C(=O)NC(=O)/C(=C\c2ccc(N(CC)CC)o2)C1=O	-74	-59*
CCOc1ccc(N2C(=O)NC(=O)/C(=C\c3ccc(Br)o3)C2=O)cc1	.	131
O=C(NC(=O)c1ccccc1)Nc1ccccc1	-12	.
Cn1c(=O)cc(SCC(=O)NCCN2CCN(c3cccc(Cl)c3)CC2)c2ccccc21	-29	103
COC(=O)C(C)N1C(=O)S/C(=C/c2ccc(N3CCCCCC3)o2)C1=O (stereo not given)	-47	-15*
O=C(CN1C(=O)S/C(=C/c2ccc(N3CCCCCC3)o2)C1=O)N1CCCCCC1	-25	.
CCn1cc(S(=O)(=O)c2cc(C)ccc2C)c(=O)c2cc(F)c(N3CCOCC3)cc21	-30	106
O=C(NCSc1ncccn1)c1ccccc1	0	.
O=C(CN1C(=O)CCC1=O)Nc1ccc(Br)cc1	-16	.
O=C1CN(C(=O)NCC2CCCO2)CCN1 (stereo not given)	.	98
CN(C)c1ccc(/C=C(\C#N)C(N)=C(C#N)C#N)cc1	.	-24*
CN(C)c1ccc(/C=C(\C#N)C(N)=O)cc1	-118	.
CN(C)c1ccc(/C=C(\C#N)c2nc3ccccc3c(=O)[nH]2)cc1	-43	254
CN(C)c1ccc(/C=C(/C#N)c2ccc(C#N)cc2)cc1	-10	11*
CCCC(C(=O)Nc1cc(C)c(Cl)cc1OC)N1Cc2ccccc2C1=O (stereo not given)	.	102

Structures listed so far with fluorine:
SMILES	HCMV UL50-53 inh	GIV-Gai inh
Cc1c(C(=O)Nc2cccc(F)c2)sc2nc(-c3cc4ccccc4oc3=O)[nH]c(=O)c12	-8	97
COC(=O)CNc1cc(C)c(C(O)(C(F)(F)F)C(F)(F)F)cc1OC	-1	.
Cc1cc(C)c(-c2n[nH]c3c2C(c2ccccc2F)N(Cc2ccco2)C3=O)c(O)c1 (stereo not given)	20	102
CCn1cc(S(=O)(=O)c2cc(C)ccc2C)c(=O)c2cc(F)c(N3CCOCC3)cc21	-30	106

Later entries
SMILES	HCMV UL50-53 inh	GIV-Gai inh
COc1ccc(NC(=O)COC(=O)/C=C/c2ccco2)cc1	-41	.
O=C(c1cc2sccc2n1Cc1ccccc1)N1CCCC1	0	100
COc1ccc(C(=O)NC2(C(F)(F)F)C(=O)NC(C)=C2C#N)cc1OC (stereo not given)	.	99
COc1cc(C2C=C(c3cccs3)Nc3ncnn32)cc(OC)c1OC (stereo not given)	.	-0.1*
C1=C(c2ccccc2)Nc2ncnn2C1c1ccccc1 (stereo not given)	-16	.
Cc1c(/C=C2\SC(c3ccccc3)=NC2=O)c(=O)n(-c2ccccc2)n1C	.	-4.0*
O=C1N=C(c2ccccc2)S/C1=C\c1cccs1	.	113
Cc1nnc(Sc2cc(C(=O)NCCc3ccccc3)c3ccccc3n2)s1	.	99
CN(Cc1ccccc1)S(=O)(=O)c1ccc(CN2C(=O)c3cccnc3C2=O)cc1	.	101
CC(=O)OCc1c(C)ccc(C2C(C#N)=C(N)OC(N)=C2C#N)c1C	.	-1.1*
CCOC(=O)C1=C(C)OC(N)=C(C#N)C1c1ccc(O)cc1 (stereo not given)	-47	101
CCCc1ccc(S(=O)(=O)Nc2cccc(C(=O)N3CCCC(C(=O)NC4CCCC4)C3)c2)cc1 (stereo not given)	.	102
C=CCNC(=O)C1CCCN(C(=O)c2cccc(NS(=O)(=O)c3ccc(C(C)C)cc3)c2)C1 (stereo not given)	.	-65*
CC1(C)Cc2c(c(N3CCOCC3)nc3sc4c(=O)[nH]cnc4c23)CS1	-30	108
CC(=O)Nc1ccc(Nc2nnc(-c3ccc(C)c(S(N)(=O)=O)c3)c3ccccc23)cc1	-48	105
CCOC(=O)Cn1cc(/C=C2\C(=O)NC(=O)N(c3ccc(Br)cc3)C2=O)c2ccccc21	4	112
CCOC(=O)Cn1cc(/C=C2\C(=O)NC(=O)N(c3ccc(F)cc3)C2=O)c2ccccc21	.	-36*
Cc1ccc(OCCOCCOc2ccccc2/C=N\n2cnnc2)cc1	-4	107
Cc1nnc(-c2ccc(S(=O)(=O)N3CCCC(C)C3)o2)o1 (stereo not given)	.	104
CC1(C)C(=O)NC2=C1C(=O)C(=O)c1ccccc12	107*	.

Reprinted at random: 3 compounds from above
SMILES	HCMV UL50-53 inh	GIV-Gai inh
CCOC(=O)C1=C(C)OC(N)=C(C#N)C1c1ccc(O)cc1 (stereo not given)	-47	101
Cc1ccc(OCCOCCOc2ccccc2/C=N\n2cnnc2)cc1	-4	107
CC1(C)Cc2c(c(N3CCOCC3)nc3sc4c(=O)[nH]cnc4c23)CS1	-30	108

Bioassay records: PubChem BioAssay, ICCB-Longwood Screening Facility, Harvard Medical School
